PMC4577729, “7-(Pyrazol-4-yl)-3H-imidazo[4,5-b]pyridine-based derivatives for kinase inhibition: Co-crystallisation studies with Aurora-A reveal distinct differences in the orientation of the pyrazole N1-substituent” (Bioorganic & Medicinal Chemistry Letters, 2015)

Amino acid sequences for entries named in this document (tags omitted). Residues count along the entry.
UniProt P54760, 16-987 limits assumed: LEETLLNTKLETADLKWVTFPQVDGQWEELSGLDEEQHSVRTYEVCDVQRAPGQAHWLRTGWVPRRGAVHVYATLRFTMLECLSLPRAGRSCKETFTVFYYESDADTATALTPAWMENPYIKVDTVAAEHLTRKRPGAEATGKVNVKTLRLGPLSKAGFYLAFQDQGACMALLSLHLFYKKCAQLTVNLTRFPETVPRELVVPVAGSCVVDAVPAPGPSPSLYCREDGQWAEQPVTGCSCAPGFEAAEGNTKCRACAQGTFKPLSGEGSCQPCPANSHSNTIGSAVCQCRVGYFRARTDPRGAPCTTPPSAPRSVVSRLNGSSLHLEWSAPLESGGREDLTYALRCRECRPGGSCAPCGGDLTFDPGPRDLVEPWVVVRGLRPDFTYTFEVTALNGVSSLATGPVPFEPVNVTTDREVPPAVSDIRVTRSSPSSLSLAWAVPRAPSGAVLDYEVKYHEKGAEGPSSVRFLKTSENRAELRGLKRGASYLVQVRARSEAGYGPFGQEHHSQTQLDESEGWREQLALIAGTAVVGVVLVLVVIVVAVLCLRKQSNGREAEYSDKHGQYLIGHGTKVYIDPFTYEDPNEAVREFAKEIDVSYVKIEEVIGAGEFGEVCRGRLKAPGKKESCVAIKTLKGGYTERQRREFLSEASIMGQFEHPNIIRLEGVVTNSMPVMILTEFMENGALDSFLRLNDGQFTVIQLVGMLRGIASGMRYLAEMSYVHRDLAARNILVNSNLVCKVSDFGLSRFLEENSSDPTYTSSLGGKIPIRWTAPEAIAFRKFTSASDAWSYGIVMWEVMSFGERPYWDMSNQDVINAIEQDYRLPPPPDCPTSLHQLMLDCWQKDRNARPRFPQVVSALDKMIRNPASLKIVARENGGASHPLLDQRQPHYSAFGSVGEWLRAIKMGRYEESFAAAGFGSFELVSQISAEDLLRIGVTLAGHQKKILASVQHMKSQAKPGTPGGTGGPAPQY
UniProt Q9P0L2, whole entry: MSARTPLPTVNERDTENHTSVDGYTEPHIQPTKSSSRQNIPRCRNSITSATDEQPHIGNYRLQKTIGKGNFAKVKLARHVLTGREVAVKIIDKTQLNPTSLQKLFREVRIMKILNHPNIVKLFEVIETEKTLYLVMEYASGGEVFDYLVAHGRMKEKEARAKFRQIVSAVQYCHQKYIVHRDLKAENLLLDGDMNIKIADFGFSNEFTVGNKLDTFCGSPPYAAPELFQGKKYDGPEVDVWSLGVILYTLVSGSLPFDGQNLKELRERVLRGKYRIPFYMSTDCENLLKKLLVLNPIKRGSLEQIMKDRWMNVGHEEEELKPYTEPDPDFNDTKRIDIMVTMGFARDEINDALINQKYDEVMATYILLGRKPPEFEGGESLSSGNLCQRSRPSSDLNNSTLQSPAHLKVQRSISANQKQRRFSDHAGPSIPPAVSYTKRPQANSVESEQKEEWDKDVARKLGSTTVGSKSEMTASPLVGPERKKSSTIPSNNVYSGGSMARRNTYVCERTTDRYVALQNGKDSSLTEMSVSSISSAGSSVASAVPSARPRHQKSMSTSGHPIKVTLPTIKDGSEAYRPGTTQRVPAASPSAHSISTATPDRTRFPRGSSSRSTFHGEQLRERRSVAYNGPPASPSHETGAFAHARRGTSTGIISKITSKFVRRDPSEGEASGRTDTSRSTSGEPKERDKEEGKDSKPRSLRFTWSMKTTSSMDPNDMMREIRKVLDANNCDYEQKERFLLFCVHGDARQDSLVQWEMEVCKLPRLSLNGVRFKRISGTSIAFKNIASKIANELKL
UniProt P80192, whole entry: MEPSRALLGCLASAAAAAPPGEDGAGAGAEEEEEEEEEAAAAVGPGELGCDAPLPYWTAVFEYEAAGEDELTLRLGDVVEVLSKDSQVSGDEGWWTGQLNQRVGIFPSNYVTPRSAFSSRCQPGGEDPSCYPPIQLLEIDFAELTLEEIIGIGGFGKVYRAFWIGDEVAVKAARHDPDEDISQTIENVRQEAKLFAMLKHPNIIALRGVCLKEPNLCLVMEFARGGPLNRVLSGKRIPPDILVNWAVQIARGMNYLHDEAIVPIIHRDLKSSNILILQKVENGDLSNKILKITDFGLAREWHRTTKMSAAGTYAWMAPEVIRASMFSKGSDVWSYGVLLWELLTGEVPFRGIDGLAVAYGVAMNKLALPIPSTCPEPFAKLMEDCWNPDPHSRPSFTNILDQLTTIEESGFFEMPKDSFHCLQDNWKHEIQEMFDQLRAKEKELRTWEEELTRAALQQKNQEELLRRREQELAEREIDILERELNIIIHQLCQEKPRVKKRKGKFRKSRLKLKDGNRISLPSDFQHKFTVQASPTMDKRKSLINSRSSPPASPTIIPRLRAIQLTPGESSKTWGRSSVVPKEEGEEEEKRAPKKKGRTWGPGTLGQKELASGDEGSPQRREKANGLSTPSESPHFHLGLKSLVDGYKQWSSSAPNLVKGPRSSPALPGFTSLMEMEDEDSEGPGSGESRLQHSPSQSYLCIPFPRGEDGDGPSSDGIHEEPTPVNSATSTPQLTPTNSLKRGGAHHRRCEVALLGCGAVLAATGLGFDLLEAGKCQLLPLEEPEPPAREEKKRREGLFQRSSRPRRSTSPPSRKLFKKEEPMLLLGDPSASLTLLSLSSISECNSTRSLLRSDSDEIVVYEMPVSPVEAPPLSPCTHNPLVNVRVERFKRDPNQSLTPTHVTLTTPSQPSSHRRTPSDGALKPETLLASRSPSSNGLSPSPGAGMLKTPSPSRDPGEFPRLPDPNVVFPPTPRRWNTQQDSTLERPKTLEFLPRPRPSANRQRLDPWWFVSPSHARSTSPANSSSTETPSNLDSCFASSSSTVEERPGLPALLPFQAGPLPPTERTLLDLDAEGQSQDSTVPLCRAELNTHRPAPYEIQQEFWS
UniProt P11309, whole entry: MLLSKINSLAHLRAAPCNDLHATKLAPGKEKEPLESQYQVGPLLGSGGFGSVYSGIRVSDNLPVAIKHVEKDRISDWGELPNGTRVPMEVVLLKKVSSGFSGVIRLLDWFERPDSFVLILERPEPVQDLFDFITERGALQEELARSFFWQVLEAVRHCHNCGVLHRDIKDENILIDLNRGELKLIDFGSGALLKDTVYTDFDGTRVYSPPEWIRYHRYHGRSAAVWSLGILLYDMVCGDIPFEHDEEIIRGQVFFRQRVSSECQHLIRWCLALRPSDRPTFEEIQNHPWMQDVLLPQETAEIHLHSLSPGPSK
UniProt Q96SB4, whole entry: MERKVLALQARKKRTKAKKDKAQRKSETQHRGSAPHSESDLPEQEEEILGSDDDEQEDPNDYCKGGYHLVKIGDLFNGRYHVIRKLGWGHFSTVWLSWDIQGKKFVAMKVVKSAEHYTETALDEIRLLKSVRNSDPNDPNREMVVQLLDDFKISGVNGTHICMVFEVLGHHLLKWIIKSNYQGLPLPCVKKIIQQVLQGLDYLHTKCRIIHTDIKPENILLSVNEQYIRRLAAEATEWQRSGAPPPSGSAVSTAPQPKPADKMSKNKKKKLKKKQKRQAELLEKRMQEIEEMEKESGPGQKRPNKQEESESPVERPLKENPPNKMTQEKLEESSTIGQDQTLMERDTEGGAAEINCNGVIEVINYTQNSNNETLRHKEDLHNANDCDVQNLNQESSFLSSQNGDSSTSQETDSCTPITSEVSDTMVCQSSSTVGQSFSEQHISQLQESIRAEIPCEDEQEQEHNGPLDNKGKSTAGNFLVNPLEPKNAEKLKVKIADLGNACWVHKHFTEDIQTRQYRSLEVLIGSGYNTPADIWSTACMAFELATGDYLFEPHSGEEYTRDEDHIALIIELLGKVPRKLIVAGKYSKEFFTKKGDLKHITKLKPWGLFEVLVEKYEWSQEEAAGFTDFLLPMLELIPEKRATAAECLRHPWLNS
UniProt P33981, whole entry: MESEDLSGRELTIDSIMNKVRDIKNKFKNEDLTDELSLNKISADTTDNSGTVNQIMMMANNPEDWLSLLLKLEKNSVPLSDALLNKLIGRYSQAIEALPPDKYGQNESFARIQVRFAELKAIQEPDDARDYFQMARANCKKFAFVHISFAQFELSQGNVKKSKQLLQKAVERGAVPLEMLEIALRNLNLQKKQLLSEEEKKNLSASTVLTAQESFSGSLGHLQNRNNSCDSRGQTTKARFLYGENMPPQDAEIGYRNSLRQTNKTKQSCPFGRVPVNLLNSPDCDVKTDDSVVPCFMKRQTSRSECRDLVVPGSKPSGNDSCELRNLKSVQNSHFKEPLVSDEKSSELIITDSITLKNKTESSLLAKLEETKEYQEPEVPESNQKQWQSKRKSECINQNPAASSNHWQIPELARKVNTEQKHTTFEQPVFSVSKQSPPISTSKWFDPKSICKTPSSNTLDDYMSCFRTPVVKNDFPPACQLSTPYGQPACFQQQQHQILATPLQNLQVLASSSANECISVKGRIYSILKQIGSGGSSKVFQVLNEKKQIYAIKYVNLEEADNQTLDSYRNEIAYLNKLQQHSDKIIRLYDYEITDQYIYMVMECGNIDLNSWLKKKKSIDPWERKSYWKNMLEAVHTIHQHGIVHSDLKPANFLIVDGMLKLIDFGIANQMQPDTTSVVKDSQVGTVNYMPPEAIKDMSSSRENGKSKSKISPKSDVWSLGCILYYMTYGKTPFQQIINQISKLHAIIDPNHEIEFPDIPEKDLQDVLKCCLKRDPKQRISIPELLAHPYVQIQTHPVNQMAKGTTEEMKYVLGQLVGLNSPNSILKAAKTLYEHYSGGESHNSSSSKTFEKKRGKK
UniProt P17948, 27-1338 limits assumed: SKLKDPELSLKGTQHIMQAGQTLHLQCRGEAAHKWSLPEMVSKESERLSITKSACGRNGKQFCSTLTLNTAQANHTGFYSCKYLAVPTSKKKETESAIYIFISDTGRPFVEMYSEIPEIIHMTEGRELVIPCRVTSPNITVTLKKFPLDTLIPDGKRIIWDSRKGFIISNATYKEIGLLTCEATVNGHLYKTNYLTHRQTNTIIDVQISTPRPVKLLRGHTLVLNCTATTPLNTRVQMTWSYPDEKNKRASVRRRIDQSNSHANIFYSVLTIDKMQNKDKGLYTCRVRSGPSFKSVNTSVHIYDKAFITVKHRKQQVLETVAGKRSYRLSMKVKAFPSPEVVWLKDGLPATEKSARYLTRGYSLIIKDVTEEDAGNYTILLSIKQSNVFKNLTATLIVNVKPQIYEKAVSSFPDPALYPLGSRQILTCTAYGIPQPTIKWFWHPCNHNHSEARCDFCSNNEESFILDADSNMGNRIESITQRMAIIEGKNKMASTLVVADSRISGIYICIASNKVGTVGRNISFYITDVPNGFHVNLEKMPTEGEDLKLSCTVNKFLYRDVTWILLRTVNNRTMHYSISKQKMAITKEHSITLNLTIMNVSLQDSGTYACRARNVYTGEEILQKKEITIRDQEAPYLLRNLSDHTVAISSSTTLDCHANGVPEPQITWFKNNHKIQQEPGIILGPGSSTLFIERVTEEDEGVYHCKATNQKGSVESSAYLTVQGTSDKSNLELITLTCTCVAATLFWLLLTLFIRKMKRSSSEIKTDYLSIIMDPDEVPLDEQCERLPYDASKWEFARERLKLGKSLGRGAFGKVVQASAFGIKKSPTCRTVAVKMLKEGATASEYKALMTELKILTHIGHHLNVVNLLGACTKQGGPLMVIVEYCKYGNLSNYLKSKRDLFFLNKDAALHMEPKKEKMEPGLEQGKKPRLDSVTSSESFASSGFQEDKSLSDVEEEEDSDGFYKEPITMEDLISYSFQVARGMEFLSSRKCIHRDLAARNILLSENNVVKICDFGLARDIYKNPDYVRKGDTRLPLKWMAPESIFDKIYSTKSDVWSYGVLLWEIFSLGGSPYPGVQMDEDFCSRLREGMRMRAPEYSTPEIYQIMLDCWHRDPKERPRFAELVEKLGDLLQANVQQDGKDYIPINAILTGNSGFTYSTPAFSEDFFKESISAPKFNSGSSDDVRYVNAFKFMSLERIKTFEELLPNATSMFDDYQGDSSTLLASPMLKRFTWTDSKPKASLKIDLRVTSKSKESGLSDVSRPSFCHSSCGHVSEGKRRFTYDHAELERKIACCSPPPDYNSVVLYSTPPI
UniProt P07947, whole entry: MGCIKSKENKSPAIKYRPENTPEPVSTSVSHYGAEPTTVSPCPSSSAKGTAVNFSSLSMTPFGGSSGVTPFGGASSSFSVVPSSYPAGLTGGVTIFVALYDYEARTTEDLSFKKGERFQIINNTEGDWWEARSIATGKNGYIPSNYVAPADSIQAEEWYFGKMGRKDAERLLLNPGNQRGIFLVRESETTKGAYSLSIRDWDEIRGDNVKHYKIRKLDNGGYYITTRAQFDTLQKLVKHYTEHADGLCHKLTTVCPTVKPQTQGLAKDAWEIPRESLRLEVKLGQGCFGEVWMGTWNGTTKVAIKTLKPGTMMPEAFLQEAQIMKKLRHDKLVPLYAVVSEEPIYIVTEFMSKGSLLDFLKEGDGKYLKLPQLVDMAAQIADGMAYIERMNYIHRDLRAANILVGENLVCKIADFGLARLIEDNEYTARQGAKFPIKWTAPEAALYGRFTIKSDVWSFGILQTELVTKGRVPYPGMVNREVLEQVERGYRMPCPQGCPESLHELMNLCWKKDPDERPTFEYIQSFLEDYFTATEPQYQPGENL

Columns and labels:
Experiment in all cases: Kinase selectivity profiling
Assay type in all cases: biochemical
Aurora B = Aurora B (Homo sapiens, UniProt Q96GD4); conditions: 1 µM, assay duplicates
Description: (§1) [20] Kinase selectivity profiling for compounds 7a, 7d, 14d and 14g was carried out at the International Centre for Protein Kinase Profiling, Division of Signal Transduction Therapy, University of Dundee.
(§2) Table S1: Kinase selectivity profiling of compounds 7a and 7d in a 102-kinase panel screened at a concentration of 1 µM.
(§3) Table S2: Kinase selectivity profiling of compounds 14d and 14g in a 105-kinase panel screened at a concentration of 1 µM.

BRSK1 = BRSK1 (Homo sapiens, UniProt Q8TDC3); conditions: 1 µM, assay duplicates
Description: as §1, §2, §3

BRSK2 = BRSK2 (Homo sapiens, UniProt Q8IWQ3); conditions: 1 µM, assay duplicates
Description: as §1, §2, §3

CAMK1 = CAMK1 (Homo sapiens, UniProt Q14012); conditions: 1 µM, assay duplicates
Description: as §1, §2, §3

CDK2-Cyclin A = CDK2-Cyclin A (Homo sapiens, UniProt P24941); conditions: 1 µM, assay duplicates
Description: as §1, §2, §3

CHK1 = CHK1 (Homo sapiens, UniProt O14757); conditions: 1 µM, assay duplicates
Description: as §1, §2, §3

CK2 = CK2 (Homo sapiens, UniProt P68400); conditions: 1 µM, assay duplicates
Description: as §1, §2, §3

DYRK1A = DYRK1A (Homo sapiens, UniProt Q13627); conditions: 1 µM, assay duplicates
Description: as §1, §2, §3

EPH-B4 = EPH-B4 (Homo sapiens, UniProt P54760); conditions: 1 µM, assay duplicates
Description: as §1, §2, §3

FGF-R1 = FGF-R1 (Homo sapiens, UniProt P11362); conditions: 1 µM, assay duplicates
Description: as §1, §2, §3

HIPK1 = HIPK1 (Homo sapiens, UniProt Q86Z02); conditions: 1 µM, assay duplicates
Description: as §1, §2, §3

HIPK2 = HIPK2 (Homo sapiens, UniProt Q9H2X6); conditions: 1 µM, assay duplicates
Description: as §1, §2, §3

IKKb = IKKb (Homo sapiens, UniProt O14920); conditions: 1 µM, assay duplicates
Description: as §1, §2, §3

IKKe = IKKe (Homo sapiens, UniProt Q14164); conditions: 1 µM, assay duplicates
Description: as §1, §2, §3

IR = IR (Homo sapiens, UniProt P06213); conditions: 1 µM, assay duplicates
Description: as §1, §2, §3

JNK3 = JNK3 (Homo sapiens, UniProt P53779); conditions: 1 µM, assay duplicates
Description: as §1, §2, §3

LKB1 = LKB1 (Homo sapiens, UniProt Q15831); conditions: 1 µM, assay duplicates
Description: as §1, §2, §3

Lck = Lck (Homo sapiens, UniProt P06239); conditions: 1 µM, assay duplicates
Description: as §1, §2, §3

MAPKAP-K2 = MAPKAP-K2 (Homo sapiens, UniProt P49137); conditions: 1 µM, assay duplicates
Description: as §1, §2, §3

MARK1 = MARK1 (Homo sapiens, UniProt Q9P0L2); conditions: 1 µM, assay duplicates
Description: as §1, §2, §3

MARK2 = MARK2 (Homo sapiens, UniProt Q7KZI7); conditions: 1 µM, assay duplicates
Description: as §1, §2, §3

MARK4 = MARK4 (Homo sapiens, UniProt Q96L34); conditions: 1 µM, assay duplicates
Description: as §1, §2, §3

MEKK1 = MEKK1 (Homo sapiens, UniProt Q13233); conditions: 1 µM, assay duplicates
Description: as §1, §2, §3

MELK = MELK (Homo sapiens, UniProt Q14680); conditions: 1 µM, assay duplicates
Description: as §1, §2, §3

MLK1 = MLK1 (Homo sapiens, UniProt P80192); conditions: for MLK1 inhibition: 1 μM; for MLK1 % activity remaining: 1 µM, assay duplicates
Description: as §1, §2, §3

MNK1 = MNK1 (Homo sapiens, UniProt Q9BUB5); conditions: 1 µM, assay duplicates
Description: as §1, §2, §3

MNK2 = MNK2 (Homo sapiens, UniProt Q9HBH9); conditions: 1 µM, assay duplicates
Description: as §1, §2, §3

MSK1 = MSK1 (Homo sapiens, UniProt O75582); conditions: 1 µM, assay duplicates
Description: as §1, §2, §3

NEK2a = NEK2a (Homo sapiens, UniProt P51955); conditions: 1 µM, assay duplicates
Description: as §1, §2, §3

PDK1 = PDK1 (Homo sapiens, UniProt O15530); conditions: 1 µM, assay duplicates
Description: as §1, §2, §3

PIM1 = PIM1 (Homo sapiens, UniProt P11309); conditions: 1 µM, assay duplicates
Description: as §1, §2, §3

PKBa = PKBa (Homo sapiens, UniProt P31749); conditions: 1 µM, assay duplicates
Description: as §1, §2, §3

PLK1 = PLK1 (Homo sapiens, UniProt P53350); conditions: 1 µM, assay duplicates
Description: as §1, §2, §3

PRK2 = PRK2 (Homo sapiens, UniProt Q16513); conditions: 1 µM, assay duplicates
Description: as §1, §2, §3

S6K1 = S6K1 (Homo sapiens, UniProt P23443); conditions: 1 µM, assay duplicates
Description: as §1, §2, §3

SGK1 = SGK1 (Homo sapiens, UniProt O00141); conditions: 1 µM, assay duplicates
Description: as §1, §2, §3

SRPK1 = SRPK1 (Homo sapiens, UniProt Q96SB4); conditions: 1 µM, assay duplicates
Description: as §1, §2, §3

TBK1 = TBK1 (Homo sapiens, UniProt Q9UHD2); conditions: 1 µM, assay duplicates
Description: as §1, §2, §3

TTK = TTK (Homo sapiens, UniProt P33981); conditions: 1 µM, assay duplicates
Description: as §1, §2, §3

VEG-FR = VEG-FR (Homo sapiens, UniProt P17948); conditions: for VEGFR inhibition: 1 μM; for VEG-FR % activity remaining: 1 µM, assay duplicates
Description: as §1, §2, §3

YES1 = YES1 (Homo sapiens, UniProt P07947); conditions: 1 µM, assay duplicates
Description: as §1, §2, §3

p38d MAPK = p38d MAPK (Homo sapiens, UniProt O15264); conditions: 1 µM, assay duplicates
Description: as §1, §2, §3

p38g MAPK = p38g MAPK (Homo sapiens, UniProt P53778); conditions: 1 µM, assay duplicates
Description: as §1, §2, §3

CNCc1cccc(Cn2cc(-c3c(Cl)cnc4[nH]c(-c5cn(C)nc5C)nc34)cn2)c1
Aurora B % activity remaining (Aurora B): 8% | BRSK1 % activity remaining (BRSK1): 56% | BRSK2 % activity remaining (BRSK2): 77% | CAMK1 % activity remaining (CAMK1): 43% | CDK2-Cyclin A % activity remaining (CDK2-Cyclin A): 2% | CHK1 % activity remaining (CHK1): 59% | CK2 % activity remaining (CK2): 55% | DYRK1A % activity remaining (DYRK1A): 14% | EPH-B4 % activity remaining (EPH-B4): 74% | FGF-R1 % activity remaining (FGF-R1): 7% | HIPK1 % activity remaining (HIPK1): 21% | HIPK2 % activity remaining (HIPK2): 10% | IKKb % activity remaining (IKKb): 69% | IKKe % activity remaining (IKKe): 10% | IR % activity remaining (IR): 20% | JNK3 % activity remaining (JNK3): 40% | LKB1 % activity remaining (LKB1): 66% | Lck % activity remaining (Lck): 17% | MAPKAP-K2 % activity remaining (MAPKAP-K2): 84% | MARK1 % activity remaining (MARK1): 56% | MARK2 % activity remaining (MARK2): 48% | MARK4 % activity remaining (MARK4): 33% | MEKK1 % activity remaining (MEKK1): 12% | MELK % activity remaining (MELK): 58% | MLK1 inhibition (MLK1): ≥ 80% | MLK1 % activity remaining (MLK1): 8% | MNK1 % activity remaining (MNK1): 62% | MNK2 % activity remaining (MNK2): 51% | MSK1 % activity remaining (MSK1): 50% | NEK2a % activity remaining (NEK2a): 86% | PDK1 % activity remaining (PDK1): 27% | PIM1 % activity remaining (PIM1): 53% | PKBa % activity remaining (PKBa): 84% | PLK1 % activity remaining (PLK1): 101% | PRK2 % activity remaining (PRK2): 30% | S6K1 % activity remaining (S6K1): 13% | SGK1 % activity remaining (SGK1): 25% | SRPK1 % activity remaining (SRPK1): 53% | TBK1 % activity remaining (TBK1): 19% | TTK % activity remaining (TTK): 45% | VEGFR inhibition (VEG-FR): ≥ 80% | VEG-FR % activity remaining (VEG-FR): 5% | YES1 % activity remaining (YES1): 8% | p38d MAPK % activity remaining (p38d MAPK): 37% | p38g MAPK % activity remaining (p38g MAPK): 48%

Cc1nn(C)cc1-c1nc2c(-c3cnn(Cc4ccc(Cl)cc4)c3)c(Cl)cnc2[nH]1
Aurora B % activity remaining (Aurora B): 114% | BRSK1 % activity remaining (BRSK1): 35% | BRSK2 % activity remaining (BRSK2): 33% | CAMK1 % activity remaining (CAMK1): 101% | CDK2-Cyclin A % activity remaining (CDK2-Cyclin A): 3% | CHK1 % activity remaining (CHK1): 74% | CK2 % activity remaining (CK2): 30% | DYRK1A % activity remaining (DYRK1A): 8% | EPH-B4 % activity remaining (EPH-B4): 94% | FGF-R1 % activity remaining (FGF-R1): 13% | HIPK1 % activity remaining (HIPK1): 5% | HIPK2 % activity remaining (HIPK2): 6% | IKKb % activity remaining (IKKb): 68% | IKKe % activity remaining (IKKe): 32% | IR % activity remaining (IR): 34% | JNK3 % activity remaining (JNK3): 40% | LKB1 % activity remaining (LKB1): 64% | Lck % activity remaining (Lck): 88% | MAPKAP-K2 % activity remaining (MAPKAP-K2): 102% | MARK1 % activity remaining (MARK1): 51% | MARK2 % activity remaining (MARK2): 42% | MARK4 % activity remaining (MARK4): 60% | MEKK1 % activity remaining (MEKK1): 78% | MELK % activity remaining (MELK): 27% | MLK1 inhibition (MLK1): greater than 80% | MLK1 % activity remaining (MLK1): 6% | MNK1 % activity remaining (MNK1): 27% | MNK2 % activity remaining (MNK2): 35% | MSK1 % activity remaining (MSK1): 59% | NEK2a % activity remaining (NEK2a): 68% | PDK1 % activity remaining (PDK1): 87% | PIM1 % activity remaining (PIM1): 91% | PKBa % activity remaining (PKBa): 74% | PLK1 % activity remaining (PLK1): 70% | PRK2 % activity remaining (PRK2): 57% | S6K1 % activity remaining (S6K1): 37% | SGK1 % activity remaining (SGK1): 83% | SRPK1 % activity remaining (SRPK1): 72% | TBK1 % activity remaining (TBK1): 46% | TTK % activity remaining (TTK): 37% | VEGFR inhibition (VEG-FR): greater than 80% | VEG-FR % activity remaining (VEG-FR): 7% | YES1 % activity remaining (YES1): 39% | p38d MAPK % activity remaining (p38d MAPK): 52% | p38g MAPK % activity remaining (p38g MAPK): 55%
